Amino acid sequences for entries named in this document (tags omitted). A change or cut given only in a name is not applied to a line headed by its entry.
UniProt P41146: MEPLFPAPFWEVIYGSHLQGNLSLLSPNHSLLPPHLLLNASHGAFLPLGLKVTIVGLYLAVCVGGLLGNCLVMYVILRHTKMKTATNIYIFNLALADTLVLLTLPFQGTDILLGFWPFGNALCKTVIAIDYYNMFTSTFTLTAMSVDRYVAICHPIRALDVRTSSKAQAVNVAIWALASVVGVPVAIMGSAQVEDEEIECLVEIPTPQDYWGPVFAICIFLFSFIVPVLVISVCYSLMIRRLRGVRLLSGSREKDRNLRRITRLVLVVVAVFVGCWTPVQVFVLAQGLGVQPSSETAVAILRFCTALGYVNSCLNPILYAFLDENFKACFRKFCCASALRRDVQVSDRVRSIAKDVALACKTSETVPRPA

According to patent US7211694B2, “Substituted 4-aminocyclohexanols” (dated 2007):

Target: ORL1 receptor (Homo sapiens, UniProt P41146)
Experiment: ORL1 receptor binding assay with 3H-nociceptin/orphanin FQ, membranes of recombinant CHO-ORL1 cells
Settings: read-out: Ki ORL1 binding assay, 3H-nociceptin/orphanin FQ 0.5 nM

Row | Compound | Ki [nM]
1 | CN(C)C1(c2ccccc2)CCC(OCc2ccc(F)cc2)CC1 (stereo not drawn) | 40
2 | CN(C)C1(Cc2ccccc2)CCC(OCc2ccccc2)CC1 (stereo not drawn) | 100
3 | CN(C)C1(c2ccccc2)CCC(OCc2cccc(F)c2)CC1 (stereo not drawn) | 30
4 | CN(C)C1(Cc2ccccc2)CCC(OCc2ccccc2F)CC1 (stereo not drawn) | 400
5 | CN(C)C1(Cc2ccccc2)CCC(OCc2ccc(F)cc2)CC1 (stereo not drawn) | 200
6 | CN(C)C1(Cc2ccccc2)CCC(OCc2cccc(F)c2)CC1 (stereo not drawn) | 100
